Experimental data as given in ChEMBL document CHEMBL1138501, “Structure-guided design, synthesis, and evaluation of salicylic acid-based inhibitors targeting a selectivity pocket in the active site of human 20alpha-hydroxysteroid dehydrogenase (AKR1C1)” (J Med Chem, 2009).

Assays:
[1] = molecular target: T1, Aldo-keto reductase family 1 member C1 (Homo sapiens, UniProt Q04828)
T1 sequence (Q04828 whole entry): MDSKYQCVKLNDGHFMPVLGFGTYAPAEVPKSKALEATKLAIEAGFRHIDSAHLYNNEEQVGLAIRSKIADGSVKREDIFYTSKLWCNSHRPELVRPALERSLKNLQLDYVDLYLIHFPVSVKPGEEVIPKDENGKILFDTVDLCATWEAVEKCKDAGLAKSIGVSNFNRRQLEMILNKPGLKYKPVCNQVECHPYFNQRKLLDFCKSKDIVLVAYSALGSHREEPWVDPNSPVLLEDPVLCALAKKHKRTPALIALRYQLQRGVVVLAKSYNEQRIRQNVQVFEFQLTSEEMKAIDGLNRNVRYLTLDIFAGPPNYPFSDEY

[2] = molecular target: T1, Aldo-keto reductase family 1 member C1; remark: listed apart in the source
[3] = molecular target: T2, Aldo-keto reductase family 1 member C1 (Homo sapiens) (UniProt Q04828); conditions: 0.1 uM
T2 sequence (whole entry): T1 sequence (Q04828 whole entry)

IC50 [1]: 2300 nM
Ki [2]: 9 nM
Activity [3]: Active
SMILES: O=C(O)c1cc(Br)cc(Br)c1O

Calls of active or inactive are those of the source. No cut-off for these calls is given here.
